## Experimental water solubility values from OPERA 2.9

Values as listed in the OPERA 2.9 repository of K. Mansouri.

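The numbers are reported measurements, compiled and curated for the OPERA QSAR suite. A listed value is a point estimate from one report or more. Method and conditions are not stated for these values. A value may pool stereoisomers or salt forms, and the file does not say which form was measured. Some upstream entries may be estimates or bounds without being marked so.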

Solubility in water is on a log10 molar scale (set defined at 25 °C).
"n/a" marks a cell with nothing listed here.

{"smiles": "O=c1[nH]cnc2ccccc12", "log S (log10 mol/L)": "-0.924"}
{"smiles": "OC(Cc1ccccc1)c1ccccc1", "stereo": "stereo unspecified", "name": "Benzeneethanol, .alpha.-phenyl-", "log S (log10 mol/L)": "-2.52"}
{"smiles": "CCCCCCCCC(=O)OCC(COC(=O)CCCCCCCC)(COC(=O)CCCCCCCC)COC(=O)CCCCCCCC", "log S (log10 mol/L)": "-8.366"}
{"smiles": "Nc1nc2ncnc(N)c2nc1N", "name": "4,6,7-Pteridinetriamine", "log S (log10 mol/L)": "-3.345"}
{"smiles": "Nc1ccc2c(O)cc(S(=O)(=O)O)cc2c1", "name": "7-Amino-4-hydroxynaphthalene-2-sulfonic acid", "log S (log10 mol/L)": "-2.728"}
{"smiles": "CCS(=O)(=O)CC", "log S (log10 mol/L)": "0.04"}
{"smiles": "CC[C@@H](CO)NCCN[C@@H](CC)CO", "name": "Ethambutol", "log S (log10 mol/L)": "-1.431"}
{"smiles": "O=C1Cc2cc(CCCl)c(Cl)cc2N1", "name": "6-Chloro-5-(2-chloroethyl)-1,3-dihydro-2H-indol-2-one", "log S (log10 mol/L)": "-4.778"}
{"smiles": "Nc1ccc(S(=O)(=O)CCOS(=O)(=O)O)cc1", "log S (log10 mol/L)": "-1.905"}
{"smiles": "COc1ccccc1O", "name": "2-Methoxyphenol", "log S (log10 mol/L)": "-1.155"}
{"smiles": "CCB(CC)OC", "name": "Diethylmethoxyborane", "log S (log10 mol/L)": "-4.119"}
{"smiles": "C=CCCCCCCCCC(=O)N[C@@H](Cc1ccccc1)C(=O)O", "name": "Undecylenoyl phenylalanine", "log S (log10 mol/L)": "-4.04"}
{"smiles": "NS(=O)(=O)c1cc(S(N)(=O)=O)cc(S(N)(=O)=O)c1", "name": "Benzene-1,3,5-trisulfonamide", "log S (log10 mol/L)": "-2.32"}
{"smiles": "c1ccc2sc(SN3CCOCC3)nc2c1", "name": "N-Oxydiethylene-2-benzothiazylsulfenamide", "log S (log10 mol/L)": "-6.811"}
{"smiles": "C=CCCC(=O)Oc1ccccc1", "name": "Phenyl pent-4-enoate", "log S (log10 mol/L)": "-2.716"}
{"smiles": "FC(F)(F)c1cccc(C(c2ccccc2)(c2ccccc2)n2ccnn2)c1", "log S (log10 mol/L)": "-8.383"}
{"smiles": "ClC(Cl)(Br)Br", "name": "Dibromodichloromethane", "log S (log10 mol/L)": "-3.21"}
{"smiles": "Cn1nc(-c2cc(OCC(=O)O)c(Cl)cc2F)c(Cl)c1OC(F)F", "name": "Pyraflufen", "log S (log10 mol/L)": "-5.605"}
{"smiles": "O=C(CCc1ccc(O)cc1)Nc1ccccc1C(=O)O", "name": "Hydroxyphenyl propamidobenzoic acid", "log S (log10 mol/L)": "-3.451"}
{"smiles": "N[C@@H](Cn1ccc(=O)c(O)c1)C(=O)O", "name": "(S)-alpha-Amino-3-hydroxy-4-oxo-1(4H)-pyridylpropionic acid", "log S (log10 mol/L)": "-1.18"}
{"smiles": "CC(=O)OC(C)C1CCCCC1", "stereo": "stereo unspecified", "name": "1-Cyclohexylethyl acetate", "log S (log10 mol/L)": "-3.598"}
{"smiles": "COC(=O)CS(=O)(=O)c1ccc(Br)cc1", "name": "Methyl [(4-bromophenyl)sulfonyl]acetate", "log S (log10 mol/L)": "-2.48"}
{"smiles": "COc1ccc2c(c1)CCCC2", "name": "1,2,3,4-Tetrahydro-6-methoxynaphthalene", "log S (log10 mol/L)": "-2.748"}
{"smiles": "CN1CCN(CCCN2c3ccccc3Sc3ccccc32)CC1", "name": "Perazine", "log S (log10 mol/L)": "-4.75"}
{"smiles": "CCCCCCCCCCCCCCCCOC(=O)c1cccnc1", "name": "Hexadecyl nicotinate", "log S (log10 mol/L)": "-3.429"}
{"smiles": "Nc1c2[nH]cnc2nc[n+]1[O-]", "log S (log10 mol/L)": "-2.28"}
{"smiles": "CCCCOC(=O)c1ccc(C(=O)OCCCC)c(C(=O)OCCCC)c1", "name": "Tributyl benzene-1,2,4-tricarboxylate", "log S (log10 mol/L)": "-4.807"}
{"smiles": "CC(C)[C@@H]1NC(=O)[C@H](CCCCN)NC(=O)[C@@H](Cc2c[nH]c3ccccc23)NC(=O)[C@H](Cc2ccc(O)cc2)NC(=O)[C@@H](NC(=O)[C@H](N)Cc2ccccc2)CSSC[C@@H](C(=O)N[C@@H](Cc2c[nH]c3ccccc23)C(N)=O)NC1=O", "name": "Vapreotide", "log S (log10 mol/L)": "-5.453"}

A selection of 3 entries from above:

structure (SMILES)	name	log S (log10 mol/L)
CCCCCCCCC(=O)OCC(COC(=O)CCCCCCCC)(COC(=O)CCCCCCCC)COC(=O)CCCCCCCC	n/a	-8.366
O=C1Cc2cc(CCCl)c(Cl)cc2N1	6-Chloro-5-(2-chloroethyl)-1,3-dihydro-2H-indol-2-one	-4.778
OC(Cc1ccccc1)c1ccccc1 (stereo unspecified)	Benzeneethanol, .alpha.-phenyl-	-2.52